Assay results reported in PMC6429507, “Triterpene-Based Carboxamides Act as Good Inhibitors of Butyrylcholinesterase” (Molecules, 2019).

Sequences of proteins named here, by UniProt entry; tags and fusion partners are left off. Residues count along the entry.
UniProt P81908, whole entry: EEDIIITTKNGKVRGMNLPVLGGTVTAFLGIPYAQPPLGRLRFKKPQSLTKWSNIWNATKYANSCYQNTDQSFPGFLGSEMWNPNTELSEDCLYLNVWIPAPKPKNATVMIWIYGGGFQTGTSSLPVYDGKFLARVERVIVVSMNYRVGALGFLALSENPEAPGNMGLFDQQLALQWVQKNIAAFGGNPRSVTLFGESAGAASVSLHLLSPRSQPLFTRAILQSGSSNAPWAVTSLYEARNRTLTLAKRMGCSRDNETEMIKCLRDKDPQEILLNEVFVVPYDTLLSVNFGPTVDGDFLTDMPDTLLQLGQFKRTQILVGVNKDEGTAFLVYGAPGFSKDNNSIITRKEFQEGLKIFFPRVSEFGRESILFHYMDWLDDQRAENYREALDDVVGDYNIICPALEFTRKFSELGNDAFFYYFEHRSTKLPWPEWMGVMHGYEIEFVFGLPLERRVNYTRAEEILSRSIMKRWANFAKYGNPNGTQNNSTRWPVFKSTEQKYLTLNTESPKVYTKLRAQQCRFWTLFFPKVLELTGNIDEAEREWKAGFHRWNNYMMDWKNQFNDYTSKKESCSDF
UniProt O42275, 24-633 limits assumed: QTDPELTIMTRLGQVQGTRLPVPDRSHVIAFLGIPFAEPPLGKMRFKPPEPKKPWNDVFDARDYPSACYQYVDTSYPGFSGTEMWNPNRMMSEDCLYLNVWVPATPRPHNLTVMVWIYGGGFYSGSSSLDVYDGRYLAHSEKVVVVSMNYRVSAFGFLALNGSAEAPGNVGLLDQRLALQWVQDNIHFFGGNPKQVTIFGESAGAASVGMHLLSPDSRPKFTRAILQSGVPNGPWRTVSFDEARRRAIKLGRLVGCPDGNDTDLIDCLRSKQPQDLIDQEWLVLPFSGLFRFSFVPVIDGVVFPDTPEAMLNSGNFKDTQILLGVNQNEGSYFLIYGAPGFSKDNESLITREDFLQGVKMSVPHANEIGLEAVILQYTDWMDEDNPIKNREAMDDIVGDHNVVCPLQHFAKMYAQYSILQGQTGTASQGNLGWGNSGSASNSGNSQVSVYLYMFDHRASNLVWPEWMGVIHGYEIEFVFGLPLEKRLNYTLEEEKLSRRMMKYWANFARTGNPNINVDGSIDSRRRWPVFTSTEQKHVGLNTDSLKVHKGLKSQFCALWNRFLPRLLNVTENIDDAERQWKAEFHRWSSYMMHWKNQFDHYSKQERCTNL

Key:
[1] = target: butyrylcholinesterase (BChE, equine serum) (Equus caballus, UniProt P81908); experiment: Ellman's assay, butyrylcholinesterase inhibition; format: biochemical
[2] = target: acetylcholinesterase (AChE, electric eel) (Electrophorus electricus, UniProt O42275); details: 30 µM

C[C@H]1[C@H](C)CC[C@]2(C(=O)NCCN3CCCCC3)CC[C@]3(C)C(=CC[C@@H]4[C@@]5(C)CC[C@H](O)C(C)(C)[C@@H]5CC[C@]43C)[C@H]12
Type of Inhibition ([1]; BChE, equine serum): mixed-type | Ki′ (uncompetitive inhibition) ([1]; BChE, equine serum, Ellman's assay): 7640 ± 220 nM | Grade of inhibition in% BChE ([1]; c = 30 µM, mean ± SE): 75.72 ± 0.15% | Ki ([1]; read-out: Ki (competitive inhibition), BChE, equine serum, Ellman's assay): 2370 nM | inhibition [2]: 21.7%
